According to patent US8350049B2, “Immobilized 1,2-benzisothiazolin-3-one” (priority 2006, dated 2013):

Test: HPLC analysis of free (methanol-soluble) and immobilized BIT in a BIT/ZnO complex
Type: physicochemical
Procedure: For purposes of this invention, “immobilized BIT” and “free BIT” are defined in operational terms based on the fact that BIT per se is soluble in methanol at greater than 5%, i.e., 5 grams of pure BIT will be completely soluble in 100 ml of methanol. […]
Approximately 500 mg of the BIT/ZnO complex is weighed exactly (exact weight can vary depending upon the expected “free” BIT content of the complex being analyzed) into a 100 ml flask. A quantity of 50 ml of methanol (HPLC-grade) is added. […] The reaction mixture is then filtered over a 0.25μ membrane filter (e.g., Millipore) and is ready to be injected into an HPLC-column.
The HPLC-conditions for analysis of the “free” BIT is the same as set out above in part 1. The amount of “free” BIT in the BIT/ZnO complex is then determined by comparison to an external standard (150 mg BIT/1 liter methanol).
The BIT/ZnO product was analyzed by heating 300 mg at 60° C. for 10 minutes with 50 ml of a 5% solution of sodium hydroxide in methanol. Sufficient methanol was added to bring the solution to 100 ml and the resulting solution was filtered through a 0.45 micron filter and injected into a RP-18 HPLC column (eluent was an acetonitrile/water mixture.) The amount of BIT was determined using an external standard and a UV detector operating at 310 nm. […]

## bis-(1,2-Benzisothiazolin-3-one)zinc(II)chloride [Example 1]
  solubility of the complex in methanol: almost completely soluble in methanol
Free BIT by HPLC, % of the product
  soluble BIT from methanol extract: 63%
